System: IL-8
Experiment: Glucocorticoid transrepression assay, IL-8 inhibition (TR)
Type: cell-based
Conditions: Homo sapiens
Protocol: Human Lung epithelial cell line NCl-H292 cells were dissociated from stock flask using 0.05% trypsin/0.53 mM EDTA. Cells were suspended in complete medium and counted. Cells were plated in 96-well flat-bottom plates at 20K cells /well in 0.2 ml/well. Plates were incubated for 24-48 hours until cells were between 75-90% confluent. Medium was aspirated and replaced with medium containing various concentrations of steroids or antagonists. After 1 hour incubation at 37°, TNFα (10 ng/ml final concentration in 0.2 ml) was added and the cells incubated overnight. Control wells with and without TNF were included on each plate, as well as wells with TNF in addition to a maximum (10 μM) concentration of dexamethasone. The cell culture medium was sampled and IL-6 and IL-8 cytokine production was measured using the MSD Multi-Spot immunoassay.

SMILES: CC12Cc3cnn(-c4ccc(F)cc4)c3C=C1CCC1C2[C@@H](O)CC2(C)C1CC[C@]2(O)C(=O)CSc1nc2ccccc2c(=O)[nH]1 (some centres unmarked) [Compound 12]
- Emax (read-out: IL-8 inhibition (TR) Emax % inhibition): > 80%
- IC50 (read-out: IL-8 inhibition (TR) IC50): 0.06 to 20 nM

Reference: patent US20120171126A1, “NOVEL [3,2-c] HETEROARYL STEROIDS AS GLUCOCORTICOID RECEPTOR AGONISTS COMPOSITIONS AND USES THEREOF” (priority 2009, published 2012)
